According to patent US20240024647A1, “MUCOSA PERFORATION” (LTS LOHMANN THERAPIE-SYSTEME AG, priority 2020, published 2024):

Assays:
[1] = In vitro permeation by Franz diffusion cells, mucosa with versus without steel microneedle system (AdminPatch); settings: saturated human insulin solution in natural human saliva; acceptor 0.025 molar HEPES buffer pH 7.4; FIG. 2
[2] = Solubility of the active ingredient in the acceptor medium; assay type: physicochemical; settings: phosphate buffer (pH 7.4) without further additives
[3] = In vitro permeation by Franz diffusion cells, dissolving microneedle system loaded with active ingredient, applied into the mucosa versus in reverse; settings: dissolving microneedle system loaded with salbutamol sulphate; acceptor phosphate buffer pH 7.4; FIG. 7

| Substance | active ingredient flux after pretreatment with a microneedle system [1] | permeated active ingredient without pretreatment [1] | solubility in acceptor medium [2] | active ingredient flux with the microneedle system applied in the mucosa, factor higher in comparison to the system without penetration into the mucosa [3] |
| --- | --- | --- | --- | --- |
| human insulin | could be observed only after pretreatment | not possible to detect any permeated active ingredient |  |  |
| salbutamol sulphate |  |  | very easily dissolved | 2 |
